Among the data in ChEMBL document CHEMBL2417476, “Structure-activity relationships of benzimidazole-based glutaminyl cyclase inhibitors featuring a heteroaryl scaffold” (J Med Chem, 2013) are Ratio Ki values, retold here.

The species named for assay [1] is Homo sapiens. The assay can be described thus: Selectivity ratio of Ki for human glutaminyl cyclase W329Y mutant to Ki for wild type human glutaminyl cyclase.
Assay [2] is filed under the species Homo sapiens. Description: Selectivity ratio of Ki for human glutaminyl cyclase W207F mutant to Ki for wild type human glutaminyl cyclase.
The species entered for assay [3] is Homo sapiens. The assay can be described thus: Selectivity ratio of Ki for human glutaminyl cyclase K144A mutant to Ki for wild type human glutaminyl cyclase.
For assay [4], the species on record is Homo sapiens. Description: Selectivity ratio of Ki for human glutaminyl cyclase I303N mutant to Ki for wild type human glutaminyl cyclase.
For assay [5], the species on record is Homo sapiens. Description: Selectivity ratio of Ki for human glutaminyl cyclase H206Q mutant to Ki for wild type human glutaminyl cyclase.
Assay [6] is filed under the species Homo sapiens. The assay can be described thus: Selectivity ratio of Ki for human glutaminyl cyclase F325A mutant to Ki for wild type human glutaminyl cyclase.
The species entered for assay [7] is Homo sapiens. Description: Selectivity ratio of Ki for human glutaminyl cyclase W207Q mutant to Ki for wild type human glutaminyl cyclase.
Assay [8] is filed under the species Homo sapiens. Description: Selectivity ratio of Ki for human glutaminyl cyclase W329F mutant to Ki for wild type human glutaminyl cyclase.
The species named for assay [9] is Homo sapiens. The assay can be described thus: Selectivity ratio of Ki for human glutaminyl cyclase W207L mutant to Ki for wild type human glutaminyl cyclase.
The species named for assay [10] is Homo sapiens. Description: Selectivity ratio of Ki for human glutaminyl cyclase I303A mutant to Ki for wild type human glutaminyl cyclase.
Assay [11] is filed under the species Homo sapiens. The assay can be described thus: Selectivity ratio of Ki for human glutaminyl cyclase K144M mutant to Ki for wild type human glutaminyl cyclase.
The species named for assay [12] is Homo sapiens. Description: Selectivity ratio of Ki for human glutaminyl cyclase K144R mutant to Ki for wild type human glutaminyl cyclase.
For assay [13], the species on record is Homo sapiens. The assay can be described thus: Selectivity ratio of Ki for human glutaminyl cyclase F325Y mutant to Ki for wild type human glutaminyl cyclase.
For assay [14], the species on record is Homo sapiens. Description: Selectivity ratio of Ki for human glutaminyl cyclase H206A mutant to Ki for wild type human glutaminyl cyclase.
The species entered for assay [15] is Homo sapiens. The assay can be described thus: Selectivity ratio of Ki for human glutaminyl cyclase F325N mutant to Ki for wild type human glutaminyl cyclase.
The species entered for assay [16] is Homo sapiens. The assay can be described thus: Selectivity ratio of Ki for human glutaminyl cyclase I303V mutant to Ki for wild type human glutaminyl cyclase.
The species entered for assay [17] is Homo sapiens. Description: Selectivity ratio of Ki for human glutaminyl cyclase I303F mutant to Ki for wild type human glutaminyl cyclase.

The structures appear in SMILES notation.

For the compound `c1ccc2[nH]cnc2c1` [BENZIMIDAZOLE], the Ratio Ki in the assay listed under Homo sapiens [1] came out at 4; in the assay listed under Homo sapiens [2], 0.8; in the assay listed under Homo sapiens [3] it was 1.1; in the assay listed under Homo sapiens [4] it was 1.8; in the assay listed under Homo sapiens [5] it was 0.9; in the assay listed under Homo sapiens [6] it was 11.4. Moreover, the Ratio Ki in the assay filed under Homo sapiens [7] was 1.1; in the assay listed under Homo sapiens [8], 0.3; in the assay listed under Homo sapiens [9], 0.7; in the assay listed under Homo sapiens [10] it was 1.4; in the assay listed under Homo sapiens [11], 1.1; in the assay listed under Homo sapiens [12] it was 1.7. The Ratio Ki came out at 5.6 in the assay listed under Homo sapiens [13]; 1 in the assay listed under Homo sapiens [14]; 6.7 in the assay filed under Homo sapiens [15]; 1.2 in the assay listed under Homo sapiens [16]; 2.2 in the assay filed under Homo sapiens [17].
